# Antibody variant affinities, Ab-14 light chain, assay 1

Reference: Engelhart et al. 2022, doi:10.1038/s41597-022-01779-4. File: FLAb, binding data.

Target: peptide PDVDLGDISGINAS, taken from heptad repeat 2 (HR2) of SARS-CoV-2 spike.

Parent scFv Ab-14: VH joined to VL by a 15-residue (Gly4Ser)3 linker. Changes lie in the light chain CDRs alone.
VH: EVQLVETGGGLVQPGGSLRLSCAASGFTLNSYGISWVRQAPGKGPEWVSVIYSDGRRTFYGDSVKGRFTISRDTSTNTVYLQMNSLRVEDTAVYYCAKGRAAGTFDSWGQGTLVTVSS
VL: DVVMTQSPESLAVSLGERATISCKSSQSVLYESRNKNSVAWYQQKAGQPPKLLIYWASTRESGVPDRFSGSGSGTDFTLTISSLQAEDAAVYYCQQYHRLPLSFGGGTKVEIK

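The starting antibody came from a phage panning campaign against this peptide. In library AAYL50, one, two or three CDR residues were substituted; doubles and triples were drawn at random. In AlphaSeq, yeast of one mating type display the scFv and yeast of the other type display the target. Binding brings cells together so that they mate, and sequencing counts the barcode pairs among the diploids. Read counts were normalised to the haploid input and turned into Kd by a linear fit to BCL2-family pairs of known affinity, for each replicate. Each pool was mated in three replicate cultures.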

Changes read parent residue, position, new residue, counted from the first residue of the VL shown.
All variants listed here change L102 of the VL, counted from its first residue.
Scale: log10 of Kd in nM, estimated from mating counts; low values are strong binders.
An entry "ND" has no value in the source: the pair was not observed among the diploids in that replicate. This suggests poor binding but is not conclusive.
Background: pairings of library AAYL50 with three empty control strains gave a value in 18% of cases (median 4.19, 5th percentile 2.99). Values in that range, when seen in few replicates, are hard to tell from nonspecific mating. The control count says in how many pairings with the empty strains this scFv gave a signal.

The variant S28D/N37W/L102N showed 0.58, 0.81, 0.69 (controls 0 of 9).
The variant E32M/L102I/S103E showed 2.13, 1.57, 1.24 (controls 0 of 9).
The variant Q27M/R34F/L102E showed ND, ND, ND (controls 0 of 9).
The variant R60K/L102W showed ND, ND, ND (controls 0 of 9).
The variant Q27S/R34E/L102W showed 0.55, 1.09, 0.95 (controls 3 of 9).
The variant K24R/S62W/L102Q showed 1.56, 1.41, 1.75 (controls 4 of 9).
The variant K24A/R60H/L102N showed ND, ND, 3.56 (controls 1 of 9).
The variant S28R/Y97P/L102R showed ND, 3.66, ND (controls 1 of 9).
The variant W56I/S62V/L102Q showed ND, ND, ND (controls 1 of 9).
The variant N35V/H98P/L102M showed 1.26, 1.09, 1.04 (controls 4 of 9).
The variant S28C/E32F/L102D showed ND, ND, ND (controls 2 of 9).
The variant N37W/P101L/L102G showed 4.41, ND, ND (controls 4 of 9).
The variant E61R/H98F/L102D showed ND, ND, ND (controls 7 of 9).
The variant S25R/E32C/L102K showed ND, ND, ND (controls 0 of 9).
The variant Q27R/V39P/L102T showed ND, 3.42, ND (controls 2 of 9).
The variant E32R/T59P/L102E showed 4.53, 3.80, ND (controls 1 of 9).
The variant R60M/L100D/L102C showed ND, ND, ND (controls 1 of 9).
The variant S25Y/S38H/L102F showed ND, ND, 3.96 (controls 0 of 9).
The variant R99Q/L102S showed 2.30, 2.11, 2.18 (controls 0 of 9).
The variant K36P/S38A/L102D showed 1.10, 1.40, 1.41 (controls 3 of 9).
The variant S58G/L102I/S103R showed ND, ND, ND (controls 0 of 9).
The variant Y97W/R99W/L102W showed 5.89, 4.31, ND (controls 2 of 9).
The variant E61L/L102R showed ND, 4.07, 4.35 (controls 1 of 9).
The variant S38M/P101R/L102N showed ND, ND, ND (controls 0 of 9).
The variant K24F/L102N/S103R showed 0.65, 1.47, 1.20 (controls 1 of 9).
The variant E61T/Y97G/L102Q showed ND, ND, ND (controls 0 of 9).
The variant E61R/Q96G/L102Q showed ND, ND, ND (controls 1 of 9).
The variant S58Y/R60G/L102K showed ND, ND, ND (controls 0 of 9).
The variant N37W/Q95E/L102E showed 1.26, 1.52, 1.57 (controls 1 of 9).
The variant S25H/L100N/L102G showed ND, ND, ND (controls 0 of 9).
The variant S25P/W56I/L102A showed ND, ND, ND (controls 2 of 9).
The variant S26F/L100F/L102M showed ND, ND, ND (controls 0 of 9).
The variant S25W/Y97W/L102K showed ND, ND, ND (controls 0 of 9).
The variant S26H/L102G showed 1.89, 1.76, 1.97 (controls 3 of 9).
The variant S28W/E32M/L102F showed ND, ND, 3.35 (controls 0 of 9).
The variant A40L/R60M/L102A showed ND, ND, ND (controls 0 of 9).
The variant L30M/L102V showed 1.18, 1.38, 1.20 (controls 4 of 9).
The variant Q27R/T59L/L102W showed 1.64, 1.57, 1.80 (controls 3 of 9).
The variant K24C/Y97N/L102P showed ND, ND, ND (controls 5 of 9).